This passage reports IC50 and GI50 results from patent US20230148005A1, “MACROCYCLIC COMPOUNDS AND USES THEREOF” (THESEUS PHARMACEUTICALS, INC., priority 2020, published 2023).

Amino acid sequences for entries named in this document (tags omitted). A change or cut given only in a name is not applied to a line headed by its entry. Chains listed by the source or under a name are the forms on record and can include a tag or linker. Residues count along the entry.
UniProt P00533, 25-1210 L858R limits assumed: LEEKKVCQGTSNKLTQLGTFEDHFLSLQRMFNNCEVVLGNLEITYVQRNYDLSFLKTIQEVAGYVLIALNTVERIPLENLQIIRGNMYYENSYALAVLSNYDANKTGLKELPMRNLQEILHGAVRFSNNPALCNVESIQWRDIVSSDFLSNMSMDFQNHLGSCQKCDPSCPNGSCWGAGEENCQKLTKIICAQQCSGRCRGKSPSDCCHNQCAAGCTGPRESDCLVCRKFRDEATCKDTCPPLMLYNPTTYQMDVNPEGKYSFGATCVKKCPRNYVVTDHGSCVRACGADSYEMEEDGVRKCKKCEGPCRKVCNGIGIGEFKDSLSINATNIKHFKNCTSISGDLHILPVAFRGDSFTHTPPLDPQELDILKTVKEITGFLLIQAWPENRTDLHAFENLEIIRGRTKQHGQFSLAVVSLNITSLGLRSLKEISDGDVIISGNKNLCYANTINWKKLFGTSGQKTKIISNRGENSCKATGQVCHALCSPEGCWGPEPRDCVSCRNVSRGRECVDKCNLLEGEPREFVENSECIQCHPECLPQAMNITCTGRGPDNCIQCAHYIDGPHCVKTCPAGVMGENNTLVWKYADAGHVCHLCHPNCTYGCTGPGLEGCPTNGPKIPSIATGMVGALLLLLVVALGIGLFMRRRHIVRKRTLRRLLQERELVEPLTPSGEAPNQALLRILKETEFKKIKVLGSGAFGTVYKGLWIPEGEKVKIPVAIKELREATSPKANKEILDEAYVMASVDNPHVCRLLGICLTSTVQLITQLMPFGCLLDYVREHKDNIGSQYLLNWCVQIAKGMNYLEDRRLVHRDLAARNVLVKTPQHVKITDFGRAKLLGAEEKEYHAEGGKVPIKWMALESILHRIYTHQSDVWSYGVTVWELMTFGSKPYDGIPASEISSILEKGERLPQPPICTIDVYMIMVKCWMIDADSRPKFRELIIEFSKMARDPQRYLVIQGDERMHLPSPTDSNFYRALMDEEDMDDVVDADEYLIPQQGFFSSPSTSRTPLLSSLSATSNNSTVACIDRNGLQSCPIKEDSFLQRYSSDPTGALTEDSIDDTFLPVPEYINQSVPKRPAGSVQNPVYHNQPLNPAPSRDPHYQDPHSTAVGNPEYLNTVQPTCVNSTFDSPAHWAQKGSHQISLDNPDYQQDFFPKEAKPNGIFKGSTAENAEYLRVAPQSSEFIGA
UniProt P00533, 25-1210 T790M/L858R limits assumed: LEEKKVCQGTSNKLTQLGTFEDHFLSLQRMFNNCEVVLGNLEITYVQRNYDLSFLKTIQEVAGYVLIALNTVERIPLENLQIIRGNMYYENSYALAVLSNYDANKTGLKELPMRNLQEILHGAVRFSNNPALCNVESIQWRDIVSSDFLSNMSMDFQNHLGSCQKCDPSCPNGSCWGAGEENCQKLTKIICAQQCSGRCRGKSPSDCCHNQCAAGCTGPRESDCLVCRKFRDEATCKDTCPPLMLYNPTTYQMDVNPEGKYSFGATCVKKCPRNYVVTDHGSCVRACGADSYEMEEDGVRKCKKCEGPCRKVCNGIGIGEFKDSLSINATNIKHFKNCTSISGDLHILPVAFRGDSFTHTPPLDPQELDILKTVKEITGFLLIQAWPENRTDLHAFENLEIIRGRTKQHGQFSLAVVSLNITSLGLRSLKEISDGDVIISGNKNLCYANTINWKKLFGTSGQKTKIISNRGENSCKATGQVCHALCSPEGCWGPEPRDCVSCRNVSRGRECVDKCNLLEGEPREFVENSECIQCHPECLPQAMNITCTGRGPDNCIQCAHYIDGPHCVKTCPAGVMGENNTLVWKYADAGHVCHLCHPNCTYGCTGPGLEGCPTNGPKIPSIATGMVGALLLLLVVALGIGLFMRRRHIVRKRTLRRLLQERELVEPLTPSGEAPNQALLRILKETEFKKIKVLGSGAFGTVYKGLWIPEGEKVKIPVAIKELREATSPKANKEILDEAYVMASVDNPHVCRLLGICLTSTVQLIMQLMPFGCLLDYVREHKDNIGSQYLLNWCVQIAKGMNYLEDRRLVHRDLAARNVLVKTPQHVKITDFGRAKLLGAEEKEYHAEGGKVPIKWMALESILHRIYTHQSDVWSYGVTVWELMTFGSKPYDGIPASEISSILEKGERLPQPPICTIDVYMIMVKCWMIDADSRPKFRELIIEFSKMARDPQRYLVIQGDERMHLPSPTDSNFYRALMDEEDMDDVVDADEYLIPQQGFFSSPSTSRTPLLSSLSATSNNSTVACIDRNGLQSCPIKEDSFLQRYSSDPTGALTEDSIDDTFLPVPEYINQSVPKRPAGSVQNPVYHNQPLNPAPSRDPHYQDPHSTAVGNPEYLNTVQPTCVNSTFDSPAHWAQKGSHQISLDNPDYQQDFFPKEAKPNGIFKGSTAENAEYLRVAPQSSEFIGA
UniProt P00533, 25-1210 T790M/C797S/L858R limits assumed: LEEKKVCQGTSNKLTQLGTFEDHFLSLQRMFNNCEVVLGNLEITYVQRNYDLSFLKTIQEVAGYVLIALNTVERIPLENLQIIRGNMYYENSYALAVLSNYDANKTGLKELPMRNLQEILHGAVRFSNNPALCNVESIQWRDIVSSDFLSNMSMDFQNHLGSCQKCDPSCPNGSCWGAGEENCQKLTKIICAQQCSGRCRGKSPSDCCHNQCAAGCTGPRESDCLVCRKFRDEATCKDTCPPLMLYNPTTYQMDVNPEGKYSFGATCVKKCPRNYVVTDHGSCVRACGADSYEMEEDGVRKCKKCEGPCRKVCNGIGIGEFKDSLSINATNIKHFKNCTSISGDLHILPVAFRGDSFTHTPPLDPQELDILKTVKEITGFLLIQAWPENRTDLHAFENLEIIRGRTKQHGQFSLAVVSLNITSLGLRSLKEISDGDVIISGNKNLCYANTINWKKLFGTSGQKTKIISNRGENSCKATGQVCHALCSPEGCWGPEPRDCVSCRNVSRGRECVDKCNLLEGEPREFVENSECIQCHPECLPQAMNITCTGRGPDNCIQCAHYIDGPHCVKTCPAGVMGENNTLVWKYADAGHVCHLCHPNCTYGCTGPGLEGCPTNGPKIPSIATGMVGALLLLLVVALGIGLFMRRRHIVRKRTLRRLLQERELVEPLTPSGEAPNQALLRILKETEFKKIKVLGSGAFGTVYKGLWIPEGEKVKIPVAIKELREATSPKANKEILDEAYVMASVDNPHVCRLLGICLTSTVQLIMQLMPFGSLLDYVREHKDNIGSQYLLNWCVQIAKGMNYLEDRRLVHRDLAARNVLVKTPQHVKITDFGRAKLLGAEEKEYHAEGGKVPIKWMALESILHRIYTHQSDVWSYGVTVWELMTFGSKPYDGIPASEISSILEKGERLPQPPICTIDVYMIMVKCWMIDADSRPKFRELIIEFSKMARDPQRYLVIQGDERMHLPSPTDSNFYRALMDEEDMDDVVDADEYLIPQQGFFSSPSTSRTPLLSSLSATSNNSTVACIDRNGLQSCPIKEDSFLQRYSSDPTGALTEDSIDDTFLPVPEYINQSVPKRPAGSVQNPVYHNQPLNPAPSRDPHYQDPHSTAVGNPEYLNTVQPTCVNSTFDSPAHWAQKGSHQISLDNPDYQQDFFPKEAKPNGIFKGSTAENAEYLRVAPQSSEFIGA
UniProt P00533, with tags, fused parts or gaps C797S/DEL746-750: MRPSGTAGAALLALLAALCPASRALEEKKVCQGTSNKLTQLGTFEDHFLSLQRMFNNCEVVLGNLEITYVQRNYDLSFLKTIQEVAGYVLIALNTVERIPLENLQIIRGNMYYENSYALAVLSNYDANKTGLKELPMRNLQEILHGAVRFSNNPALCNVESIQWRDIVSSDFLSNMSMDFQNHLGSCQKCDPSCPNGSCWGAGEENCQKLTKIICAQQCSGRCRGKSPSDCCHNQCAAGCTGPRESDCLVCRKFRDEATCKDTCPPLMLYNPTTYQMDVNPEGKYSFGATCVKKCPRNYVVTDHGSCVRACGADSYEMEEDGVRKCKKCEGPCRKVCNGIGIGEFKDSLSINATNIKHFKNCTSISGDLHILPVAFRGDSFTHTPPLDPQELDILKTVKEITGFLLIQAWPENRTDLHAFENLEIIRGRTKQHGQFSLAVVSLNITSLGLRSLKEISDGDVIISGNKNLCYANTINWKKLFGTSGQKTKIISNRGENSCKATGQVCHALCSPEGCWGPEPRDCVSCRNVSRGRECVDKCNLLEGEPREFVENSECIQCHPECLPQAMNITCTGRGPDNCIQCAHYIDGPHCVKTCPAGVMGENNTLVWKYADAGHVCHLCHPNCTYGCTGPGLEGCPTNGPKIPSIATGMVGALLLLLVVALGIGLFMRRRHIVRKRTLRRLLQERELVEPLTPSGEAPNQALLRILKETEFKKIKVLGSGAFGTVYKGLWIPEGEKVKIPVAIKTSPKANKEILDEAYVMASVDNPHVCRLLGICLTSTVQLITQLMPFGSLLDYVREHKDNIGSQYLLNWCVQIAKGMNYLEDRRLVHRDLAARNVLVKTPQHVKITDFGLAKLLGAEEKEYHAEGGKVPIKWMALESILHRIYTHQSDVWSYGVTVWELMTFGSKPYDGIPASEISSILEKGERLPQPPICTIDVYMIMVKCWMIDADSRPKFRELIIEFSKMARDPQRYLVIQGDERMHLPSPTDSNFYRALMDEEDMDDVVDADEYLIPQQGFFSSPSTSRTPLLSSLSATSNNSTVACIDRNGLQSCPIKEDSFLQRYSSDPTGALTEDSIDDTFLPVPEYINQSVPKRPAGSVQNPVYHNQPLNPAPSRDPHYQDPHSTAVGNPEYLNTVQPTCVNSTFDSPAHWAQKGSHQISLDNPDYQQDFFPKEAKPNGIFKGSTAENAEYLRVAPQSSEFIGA
UniProt P00533, with tags, fused parts or gaps DEL746-750/T790M: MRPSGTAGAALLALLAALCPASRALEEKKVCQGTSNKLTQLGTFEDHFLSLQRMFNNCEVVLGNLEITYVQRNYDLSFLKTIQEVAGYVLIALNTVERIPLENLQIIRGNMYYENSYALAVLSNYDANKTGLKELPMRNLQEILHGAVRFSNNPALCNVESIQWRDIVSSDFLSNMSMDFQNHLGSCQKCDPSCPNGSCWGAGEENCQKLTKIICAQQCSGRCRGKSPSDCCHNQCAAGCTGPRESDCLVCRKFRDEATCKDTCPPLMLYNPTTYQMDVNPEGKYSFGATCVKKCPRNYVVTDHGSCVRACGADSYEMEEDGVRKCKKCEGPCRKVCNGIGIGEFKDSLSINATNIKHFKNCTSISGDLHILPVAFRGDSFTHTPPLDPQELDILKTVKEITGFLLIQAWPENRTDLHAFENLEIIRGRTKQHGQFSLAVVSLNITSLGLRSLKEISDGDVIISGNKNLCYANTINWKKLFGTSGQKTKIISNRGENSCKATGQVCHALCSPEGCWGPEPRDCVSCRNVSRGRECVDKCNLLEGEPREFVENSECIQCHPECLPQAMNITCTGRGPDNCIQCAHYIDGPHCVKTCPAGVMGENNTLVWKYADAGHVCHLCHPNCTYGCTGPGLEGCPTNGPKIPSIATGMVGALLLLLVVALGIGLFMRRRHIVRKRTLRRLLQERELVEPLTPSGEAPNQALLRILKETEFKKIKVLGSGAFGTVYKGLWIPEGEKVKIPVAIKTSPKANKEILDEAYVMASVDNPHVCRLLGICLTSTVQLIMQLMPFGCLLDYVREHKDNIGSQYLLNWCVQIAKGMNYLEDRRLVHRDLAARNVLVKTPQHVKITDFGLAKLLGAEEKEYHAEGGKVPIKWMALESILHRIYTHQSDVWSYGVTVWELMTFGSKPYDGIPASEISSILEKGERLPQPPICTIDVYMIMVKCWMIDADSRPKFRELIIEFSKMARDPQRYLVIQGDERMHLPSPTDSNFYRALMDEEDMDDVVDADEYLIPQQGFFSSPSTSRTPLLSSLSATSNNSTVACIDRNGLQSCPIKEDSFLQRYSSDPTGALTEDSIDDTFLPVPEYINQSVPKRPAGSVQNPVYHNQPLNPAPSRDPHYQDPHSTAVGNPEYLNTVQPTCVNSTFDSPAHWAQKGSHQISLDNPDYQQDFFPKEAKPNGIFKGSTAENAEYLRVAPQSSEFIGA

For one experiment, the system named is Ba/F3 Parental. Briefly: Ba/F3 viability assay (CellTiter-Glo), parental. Particulars: read-out: BaF3 parental IC50, anti-proliferation. The text has this: (§1) Inhibition of cell proliferation can be studied using Ba/F3 viability assays, including the Promega CellTiter-Glo cell viability assay. This assay can be used to study the effect of compounds described herein in the following assays: (1) Ba/F3 Parental; (2) Ba/F3 EGFR-Del19/T790M; (3); Ba/F3 EGFR-Del19/C797S; and (4) Ba/F3 EGFR-Del19/T790M/C797S.

The target of another experiment is Ba/F3 EGFR-Del19/C797S (Homo sapiens, UniProt P00533, C797S, cells depend on it, form not given). In words: Ba/F3 viability assay (CellTiter-Glo), DC. Particulars: read-out: BaF3 DC IC50, anti-proliferation.
From the text: as §1
For orientation: Cellular ATP, detected with luciferase, serves as a proxy for viable cell number.

In a further experiment the target is EGFR^L58R/T790M (Homo sapiens, UniProt P00533, L858R/T790M). Briefly: in vitro kinase assay (HTRF KinEASE-TK kit), LT. Particulars: read-out: kinase LT IC50, kinase inhibition. The text has this: (§2) Assays using an in vitro kinase assay kit (HTRF KinEASE-TK kit) can be used to study the inhibitory activity of compounds described herein with respect to EGFR mutants such as EGFR^L858R, EGFR^L58R/T790M, and EGFR^L858R/T790M/C^797S.
(Time-resolved FRET reads energy transfer from a long-lived donor to a nearby acceptor.)

The target in another experiment is EGFR^L858R (Homo sapiens, UniProt P00533, L858R). Briefly: in vitro kinase assay (HTRF KinEASE-TK kit), L. Particulars: read-out: kinase L IC50, kinase inhibition.
From the text: as §2

The next experiment deals with Ba/F3 EGFR-Del19/T790M (Homo sapiens, UniProt P00533, T790M, cells depend on it, form not given). Briefly: Ba/F3 viability assay (CellTiter-Glo), DT. Particulars: read-out: BaF3 DT IC50, anti-proliferation.
From the text: as §1

Experiment [1] concerns the target Ba/F3 EGFR-Del19/T790M/C797S (Homo sapiens, UniProt P00533, T790M/C797S, cells depend on it, form not given). In words: Ba/F3 viability assay (CellTiter-Glo), DTC. Particulars: read-out: BaF3 DTC IC50, anti-proliferation.
From the text: as §1

In a further experiment the target is EGFR^L858R/T790M/C^797S (Homo sapiens, UniProt P00533, C797S/L858R/T790M). In words: in vitro kinase assay (HTRF KinEASE-TK kit), LTC. Particulars: read-out: kinase LTC IC50, kinase inhibition.
From the text: as §2

Turning to `C[C@H]1CCCOc2c(cnn2C)-c2nccc(n2)Nc2cc3c(cn2)c(N2CCCC2)nn31`, the IC50 in the experiment with Ba/F3 Parental was 100 to 1000 nM; at EGFR^L58R/T790M, less than 10 nM; on EGFR^L858R, less than 10 nM; on EGFR^L858R/T790M/C^797S, less than 10 nM. Also, the GI50 (at Ba/F3 EGFR-Del19/C797S; at Ba/F3 EGFR-Del19/T790M; in experiment [1]) was less than 10 nM in each case.

In the case of `C[C@H]1CCOc2c(cnn2C)-c2nccc(n2)Nc2cc3c(cn2)c(-c2ccn(C)n2)nn31`, the IC50 in the experiment with Ba/F3 Parental was more than 1000 nM; at EGFR^L58R/T790M, less than 10 nM; on EGFR^L858R it was 10 to 100 nM; at EGFR^L858R/T790M/C^797S, less than 10 nM. The GI50 (at Ba/F3 EGFR-Del19/C797S; on Ba/F3 EGFR-Del19/T790M; in experiment [1]) was 10 to 100 nM throughout.

Consider `C[C@H]1CCOc2c(cnn2C)-c2nccc(n2)Nc2cc3c(cn2)c(-c2ccccc2)nn31`, for which the IC50 was 100 to 1000 nM with Ba/F3 Parental, less than 10 nM at EGFR^L58R/T790M, 10 to 100 nM at EGFR^L858R and less than 10 nM on EGFR^L858R/T790M/C^797S. Besides, the GI50 (on Ba/F3 EGFR-Del19/C797S; at Ba/F3 EGFR-Del19/T790M; in experiment [1]) was 10 to 100 nM each time.

In the case of `CN(C)C1CCC(Oc2nn3c4cc(ncc24)Nc2ccnc(n2)-c2cnn(C)c2OCCC3)CC1` (stereo not shown), the IC50 is more than 1000 nM with Ba/F3 Parental, less than 10 nM on EGFR^L58R/T790M, 100 to 1000 nM at EGFR^L858R and 10 to 100 nM on EGFR^L858R/T790M/C^797S. The GI50 (on Ba/F3 EGFR-Del19/C797S; at Ba/F3 EGFR-Del19/T790M; in experiment [1]) was 100 to 1000 nM each time.

`CNC(=O)C1CCCN1c1nn2c3cc(ncc13)Nc1ccnc(n1)-c1cnn(C)c1OCCC2` (stereo not shown): the IC50 with Ba/F3 Parental was more than 1000 nM; on EGFR^L58R/T790M, 10 to 100 nM; on EGFR^L858R, more than 1000 nM; on EGFR^L858R/T790M/C^797S it was 100 to 1000 nM. In addition, the GI50 (on Ba/F3 EGFR-Del19/C797S; on Ba/F3 EGFR-Del19/T790M; in experiment [1]) was more than 1000 nM in each case.

For `CC1CCOc2c(cnn2C)-c2nccc(n2)Nc2ncc3c(N4CCC4)nn1c3n2` (stereo not shown), the IC50 was 100 to 1000 nM in the experiment with Ba/F3 Parental, less than 10 nM at EGFR^L58R/T790M, 10 to 100 nM at EGFR^L858R and less than 10 nM on EGFR^L858R/T790M/C^797S. Besides, the GI50 (on Ba/F3 EGFR-Del19/C797S; at Ba/F3 EGFR-Del19/T790M; in experiment [1]) was 10 to 100 nM in each case.

As to `CCn1ncc2c1OCCCC(C)n1nc(N3CCC3)c3cnc(cc31)Nc1ccnc-2n1` (stereo not shown), the IC50 with Ba/F3 Parental is more than 1000 nM; on EGFR^L58R/T790M, less than 10 nM; on EGFR^L858R, 10 to 100 nM; at EGFR^L858R/T790M/C^797S it was less than 10 nM. For the same compound, the GI50 (at Ba/F3 EGFR-Del19/C797S; on Ba/F3 EGFR-Del19/T790M; in experiment [1]) was 10 to 100 nM in each case.
